The record followed here is US11071788B2, “Antibody drug conjugates of kinesin spindel protein (KSP) inhibitors with antiB7H3-antibodies” (BAYER PHARMA AKTIENGESELLSCHAFT, priority 2015, dated 2021).

Molecules are shown by their SMILES.

The nature of the data set: in vitro. Particulars: human, Caco-2.

Compound `CC(C)(C)[C@H](c1cc(-c2cc(F)ccc2F)cn1Cc1ccccc1)N(CC[C@H](N)C(=O)NCCNC(=O)CNC(=O)C(CC(=O)O)SC[C@H](N)C(=O)O)C(=O)CO` (mixture of isomers) [Example M27, 4-[(2-{[2-({(2S)-2-Amino-4-[{(1R)-1-[1-benzyl-4-(2,5-difluorophenyl)-1H-pyrrol-2-yl]-2,2-dimethylpropyl}(glycoloyl)amino]butanoyl}amino)ethyl]amino}-2-oxoethyl)amino]-3-{[(2R)-2-amino-2-carboxyethyl]sulfanyl}-4-oxobutanoic acid-trifluoroacetic acid (1:1)] gave a Papp B→A at 2 h of 1.32 ×10⁻⁶ cm/s.
`CC(C)(C)[C@H](c1cc(-c2cc(F)ccc2F)cn1Cc1ccccc1)N(CCCN)C(=O)CSC[C@H](N)C(=O)O.O=C(O)C(F)(F)F.O=C(O)C(F)(F)F` [Example M11, S-{2-[(3-Aminopropyl){(1R)-1-[1-benzyl-4-(2,5-difluorophenyl)-1H-pyrrol-2-yl]-2,2-dimethyl-propyl}amino]-2-oxoethyl}-L-cysteine/trifluoroacetic acid (1:2)]: the Papp B→A at 2 h stood at 2.43 ×10⁻⁶ cm/s and the efflux ratio at 2 h was 27.7.
The compound `CC(C)(C)[C@H](c1cc(-c2cc(F)ccc2F)cn1Cc1ccccc1)N(CCCN)C(=O)CO` [Example M9, N-(3-Aminopropyl)-N-{(1R)-1-[1-benzyl-4-(2,5-difluorophenyl)-1H-pyrrol-2-yl]-2,2-dimethylpropyl}-2-hydroxyacetamide] yielded a Papp B→A at 2 h of 21.3 ×10⁻⁶ cm/s.
